For two molecules, IC50 results are on record in patent US8153596B2, “Use of SH2 STAT3/STAT1 peptidomimetics as anticancer drugs” (University of South Florida, priority 2006, dated 2012).

Protein sequences, listed by entry. Tags and fused reporters are not part of them. Residues count along the entry.
UniProt P42224, 2-750 limits assumed: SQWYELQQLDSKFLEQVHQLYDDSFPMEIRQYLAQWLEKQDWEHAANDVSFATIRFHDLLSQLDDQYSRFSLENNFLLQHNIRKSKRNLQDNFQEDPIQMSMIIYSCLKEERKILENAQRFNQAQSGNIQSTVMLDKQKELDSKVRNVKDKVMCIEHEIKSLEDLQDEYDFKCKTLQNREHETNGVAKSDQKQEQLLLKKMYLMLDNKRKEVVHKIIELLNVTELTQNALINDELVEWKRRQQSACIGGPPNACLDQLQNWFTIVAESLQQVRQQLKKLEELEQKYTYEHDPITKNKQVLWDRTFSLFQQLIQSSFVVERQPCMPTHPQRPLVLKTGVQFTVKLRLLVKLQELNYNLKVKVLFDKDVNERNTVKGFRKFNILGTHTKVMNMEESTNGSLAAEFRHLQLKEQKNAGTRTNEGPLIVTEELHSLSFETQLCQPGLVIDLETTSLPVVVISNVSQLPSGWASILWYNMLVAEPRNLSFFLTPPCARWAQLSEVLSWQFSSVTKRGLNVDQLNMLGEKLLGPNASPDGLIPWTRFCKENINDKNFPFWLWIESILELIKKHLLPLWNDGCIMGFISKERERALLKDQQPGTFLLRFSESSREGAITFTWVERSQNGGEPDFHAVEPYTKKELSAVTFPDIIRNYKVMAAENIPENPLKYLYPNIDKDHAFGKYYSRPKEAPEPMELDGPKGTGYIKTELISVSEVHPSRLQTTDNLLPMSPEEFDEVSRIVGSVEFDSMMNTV
UniProt P40763, 2-770 limits assumed: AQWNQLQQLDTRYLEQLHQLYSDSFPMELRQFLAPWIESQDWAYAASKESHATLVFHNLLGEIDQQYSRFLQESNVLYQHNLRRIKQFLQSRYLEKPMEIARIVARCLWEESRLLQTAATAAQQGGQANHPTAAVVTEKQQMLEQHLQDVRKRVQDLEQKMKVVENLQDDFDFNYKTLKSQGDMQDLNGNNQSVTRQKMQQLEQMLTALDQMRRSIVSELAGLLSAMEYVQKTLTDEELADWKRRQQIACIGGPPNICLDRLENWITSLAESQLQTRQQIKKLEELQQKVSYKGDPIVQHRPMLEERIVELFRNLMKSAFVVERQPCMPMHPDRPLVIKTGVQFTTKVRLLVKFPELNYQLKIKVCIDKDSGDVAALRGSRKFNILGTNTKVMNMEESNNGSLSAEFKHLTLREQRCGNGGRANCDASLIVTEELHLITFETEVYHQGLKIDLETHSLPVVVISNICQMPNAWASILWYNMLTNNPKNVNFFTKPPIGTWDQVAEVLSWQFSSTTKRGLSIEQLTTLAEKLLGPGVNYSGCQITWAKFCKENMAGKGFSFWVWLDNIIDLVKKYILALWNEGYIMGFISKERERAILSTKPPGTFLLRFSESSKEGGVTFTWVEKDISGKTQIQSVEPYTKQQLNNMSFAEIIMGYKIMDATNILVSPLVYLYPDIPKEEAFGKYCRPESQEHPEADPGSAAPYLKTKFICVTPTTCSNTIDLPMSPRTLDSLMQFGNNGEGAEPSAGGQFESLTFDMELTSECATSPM

The target of one experiment is STAT1:STAT1 (Homo sapiens, UniProt P42224). The experiment can be described thus: EMSA of STAT1:STAT1 dimer DNA binding, nuclear extracts preincubated with peptidomimetic, radiolabeled hSIE probe. The class given is biochemical. The following applies: read-out: STAT1:STAT1 IC50 values, nuclear extracts preincubated 30 min at room temperature, means of three experiments. Background: Mobility shift assays separate free from complexed probe on a gel.

The target in a further experiment is STAT3:STAT3 (Homo sapiens, UniProt P40763). As to the kind of experiment: EMSA of STAT3:STAT3 dimer DNA binding, nuclear extracts preincubated with peptidomimetic, radiolabeled hSIE probe. Format: biochemical. The following applies: read-out: STAT3:STAT3 IC50 values, nuclear extracts preincubated 30 min at room temperature, means of three experiments.

As usually defined, the IC50 is the concentration that inhibits the measured activity by half. As for `CC(C)C[C@H](NC(=O)[C@H](Cc1ccc(OP(=O)(O)O)cc1)NC(=O)c1ccc(C#N)cc1)C(=O)NCc1ccncc1`, the IC50 at STAT1:STAT1 worked out at 90 µM; at STAT3:STAT3, 405 µM.

With `CC(C)C[C@H](NC(=O)[C@H](Cc1ccc(OP(=O)(O)O)cc1)NC(=O)c1ccc(C#N)cc1)C(=O)NCc1ccccc1`, the IC50 at STAT1:STAT1 worked out at 800 µM.
